Experimental data taken from PubChem BioAssay AID1117263 (The Scripps Research Institute Molecular Screening Center, 2014).
This is a selection; strong and weak results do not stand in their true shares. The source made the active and inactive calls.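 Rule for the calls: active = mean inhibition of the replicates above the hit cutoff set in the primary screen (cut at about 17% in these data); inactive = the rest.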

Amino acid sequences for entries named in this document (tags omitted). A change or cut given only in a name is not applied to a line headed by its entry.
UniProt Q9HAT2: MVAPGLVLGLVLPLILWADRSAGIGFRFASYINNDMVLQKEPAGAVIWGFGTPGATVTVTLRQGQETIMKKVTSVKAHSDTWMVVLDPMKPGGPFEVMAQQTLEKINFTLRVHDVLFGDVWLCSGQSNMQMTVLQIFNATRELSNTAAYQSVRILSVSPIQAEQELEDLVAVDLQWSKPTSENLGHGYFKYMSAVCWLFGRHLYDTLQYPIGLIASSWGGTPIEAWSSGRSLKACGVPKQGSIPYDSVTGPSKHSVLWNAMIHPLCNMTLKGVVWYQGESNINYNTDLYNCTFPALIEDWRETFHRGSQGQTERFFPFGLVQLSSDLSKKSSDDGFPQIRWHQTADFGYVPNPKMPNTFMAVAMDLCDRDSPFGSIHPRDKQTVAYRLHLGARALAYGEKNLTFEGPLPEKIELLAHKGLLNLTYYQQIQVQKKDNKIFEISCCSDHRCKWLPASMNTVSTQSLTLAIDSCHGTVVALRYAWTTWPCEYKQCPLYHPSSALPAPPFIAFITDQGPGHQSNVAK

What follows are molecules tested against Sialate O-acetylesterase (Homo sapiens) (UniProt Q9HAT2) (assay: human SIAE inhibitors, retest, confirmation, biochemical, fluorescence polarization, FP-Rh probe, triplicate (AID 1117263;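 note: 0% = SIAE with DMSO and probe and 100% = probe without SIAE; inhibitors lower polarization as more probe stays unbound to SIAE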)). Settings: SIAE FP-Rh activity-based probe, at 9.66 µM, stronger effect = higher value.
`Nc1cccc2ccc([As](=O)(O)O)cc12` was tested, and the inhibition was inactive: 0.87%. `C[N+]1=C2C=CC=CC=C2SC12C([N+](=O)[O-])=CC([N+](=O)[O-])=C[C-]2[N+](=O)[O-]` (stereo not given) was tested, and the inhibition was inactive: 10.6%. For `O=[N+]([O-])c1cc([N+](=O)[O-])c(CCNc2ccccc2)c([N+](=O)[O-])c1`, the inhibition was active: 27.2%. With `Nc1cccc2c([As](=O)(O)O)cccc12` the inhibition was inactive: 10.6%. With `Cc1ccc(NCCc2c([N+](=O)[O-])cc([N+](=O)[O-])cc2[N+](=O)[O-])cc1` the inhibition was inactive: 15.2%.
